What was measured:
apoptotic liver = experiment: Gamma imaging in murine liver apoptosis model (anti-Fas); assay type: in vivo; conditions: mouse, i.v., radioactive species in bladder
Excerpt: We used a murine liver apoptosis model to evaluate whether chelate 4 could be used to image apoptosis in vivo. F. G. Blankenberg, J. F. Tait, R. E. Davis, L. Naumovski, K. Ohtsuki, S. Kopiwoda, M. J. Abrams, M. Darkes, R. C. Robbins, H. T. Maecker, H. W. Strauss, Proc. Natl. Acad. Sciences USA 1998, 95, 6349-6354; F. G. Blankenberg, P. D. Katsikis, J. F. Tait, R. E. Davis, L. Naumovski, K. Ohtsuki, S. Kopiwoda, M. J. Abrams, H. W. Strauss, J. Nucl. Med. 1999, 40, 184-191. Male Balb/c mice (10-12 weeks old, weight 20-25 g) were injected intravenously with an anti-Fas monoclonal antibody (10 μg/mouse) to induce apoptosis in the liver. Two hours later, ^99mTc-chelate 4 [300 μCi (11.1 MBq), 20 peptide in 0.2 ml] was injected intravenously. Radionuclide imaging was acquired 120 min after the injection of 4.
Gamma Imaging and Biodistribution For γ-imaging study, two male Balb/c mice (10-12 weeks old, weight 20-25 g) (Charles River, Wilmington, Mass.) were injected intravenously with a purified anti-Fas monoclonal antibody (10 μg/mouse) (Pharmingen, San Diego, Calif.). […] The organs of interest were excised and weighed, and radioactivity was counted in a gamma counter. The stomach and intestines were emptied of food contents prior to radioactivity measurements. The percentage of injected dose per gram (% ID/g) was calculated by dividing the % ID/organ by the weight of the tissue.

liver = experiment: Radio-HPLC analysis of liver extracts from mice injected 99mTc-chelate 4; assay type: in vivo, mouse; conditions: 2 h after i.v. injection
Experimental: Two hours after intravenous injection of 4 (1 mCi, 80 μg, 0.2 mL) into a mouse treated with […] and a mouse treated with PBS 2 h prior to the injection of the radiotracer, mice were killed and livers were removed and ground at 4° C. using a Dounce homogenizer (Polytron, […], Switzerland) in 5 mL of acetonitrile/methanol (3:1, v/v). After sequential high-speed centrifugation (100,000 g for 20 min) to remove cellular debris and insoluble proteins, the supernatants were concentrated and injected into the radio-HPLC system (condition: solvent A, 0.01 M NH4OAc in water; solvent B, acetonitrile; gradient: 0-80% B in A over 40 min, flow rate 1.0 mL/min, C18 4.6×250 mm, 5-μm column).

## Ac-DEVD-R110-D-SAAC-^99mTc(CO)3 [^99mTc-chelate 4]
Apoptotic liver
  Route of clearance: cleared through the renal route
liver; PBS-treated liver
  Ratio of area integrals of peaks R110-D-SAAC-99mTc(CO)3 and 4: 0.20
liver; anti-Fas-treated liver
  Ratio of area integrals of peaks R110-D-SAAC-99mTc(CO)3 and 4: 1.48
